# From PubChem BioAssay AID1155 (ChemBank, 2008)
# This is a selection; strong and weak results do not stand in their true shares. The source made the active and inactive calls.
# Experiment: plasmodial surface anion channel blockers, osmotic lysis – cell-based, P. falciparum Indochina, OD700, 2 h, primary screen (AID 1155);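 also: lysis reports solute entry through the parasite surface anion channel PSAC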
# Conditions: P. falciparum Indochina infected erythrocytes, higher = more signal, called active from +8 up or from −8 down
row,Structure (SMILES),z-score
1,O=P(/N=C1/CC(CCCO)=CC(C2CC2)N1Cc1cc2c(cc1Br)OCO2)(Oc1ccccc1)Oc1ccccc1 (stereo not given),inactive: 0.716
2,COP(=O)(/N=C1/CC(CCCO)=CC(C2CC2)N1Cc1cccc(OC(F)(F)F)c1)OC (stereo not given),inactive: 0.0648
3,CN1/C(=N\P(=O)(Oc2ccccc2)Oc2ccccc2)CC(CCCO)=CC1c1cccs1 (stereo not given),inactive: 0.106
4,COP(=O)(/N=C1/CC(CCCO)=CC(C2CC2)N1Cc1cc2c(cc1Br)OCO2)OC (stereo not given),inactive: 0.0673
5,O=P(/N=C1/CC(CCCO)=CC(C2CC2)N1Cc1cccc(OC(F)(F)F)c1)(Oc1ccccc1)Oc1ccccc1 (stereo not given),inactive: 0.807
6,CN1/C(=N\P(=O)(Oc2ccccc2)Oc2ccccc2)CC(c2ccc(CO)cc2)=CC1C1CC1 (stereo not given),inactive: -0.416
7,O=P(/N=C1/CC(CCCO)=CC(c2cccs2)N1Cc1cccc(OC(F)(F)F)c1)(Oc1ccccc1)Oc1ccccc1 (stereo not given),inactive: 1.3
8,CC1C=C(CCCO)C/C(=N/P(=O)(Oc2ccccc2)Oc2ccccc2)N1Cc1cccc(OC(F)(F)F)c1 (stereo not given),inactive: 0.452
9,O=P(/N=C1/CC(CCCO)=CC(c2ccc(CN3CCCC3)cc2)N1Cc1cc2c(cc1Br)OCO2)(Oc1ccccc1)Oc1ccccc1 (stereo not given),inactive: 0.323
10,COP(=O)(/N=C1/CC(CCCO)=CC(c2ccc(CN3CCCC3)cc2)N1Cc1cc2c(cc1Br)OCO2)OC (stereo not given),inactive: -0.508
11,CN1/C(=N\P(=O)(Oc2ccccc2)Oc2ccccc2)CC(CCCO)=CC1c1ccc(CN2CCCC2)cc1 (stereo not given),inactive: 0.464
12,COP(=O)(/N=C1/CC(c2ccc(CO)cc2)=CC(c2cccs2)N1C)OC (stereo not given),inactive: 0.546
13,O=P(/N=C1/CC(c2ccc(CO)cc2)=CC(c2cccs2)N1Cc1cccc(OC(F)(F)F)c1)(Oc1ccccc1)Oc1ccccc1 (stereo not given),inactive: 0.548
14,O=P(/N=C1/CC(c2ccc(CO)cc2)=CC(C2CC2)N1Cc1cc2c(cc1Br)OCO2)(Oc1ccccc1)Oc1ccccc1 (stereo not given),inactive: 0.982
15,COP(=O)(/N=C1/CC(c2ccc(CO)cc2)=CC(C2CC2)N1Cc1sc2ccccc2c1Cl)OC (stereo not given),inactive: 1.07
16,CN1/C(=N\P(=O)(Oc2ccccc2)Oc2ccccc2)CC(c2ccc(CO)cc2)=CC1c1cccs1 (stereo not given),inactive: -0.591
17,COP(=O)(/N=C1/CC(CCCO)=CC(c2ccc(CN3CCCC3)cc2)N1Cc1cccc(OC(F)(F)F)c1)OC (stereo not given),inactive: 0.414
18,O=P(/N=C1/CC(CCCO)=CC(c2cccs2)N1Cc1cc2c(cc1Br)OCO2)(Oc1ccccc1)Oc1ccccc1 (stereo not given),inactive: 0.814
19,COP(=O)(/N=C1/CC(CCCO)=CC(c2ccc(CN3CCCC3)cc2)N1C)OC (stereo not given),inactive: -0.509
20,COP(=O)(/N=C1/CC(CCCO)=CC(C2CC2)N1C)OC (stereo not given),inactive: -1.92
21,COP(=O)(/N=C1/CC(CCCO)=CC(c2cccs2)N1C)OC (stereo not given),inactive: -1.17
22,COP(=O)(/N=C1/CC(c2ccc(CO)cc2)=CC(C2CC2)N1C)OC (stereo not given),inactive: -0.723
23,COP(=O)(/N=C1/CC(CCCO)=CC(C2CC2)N1Cc1sc2ccccc2c1Cl)OC (stereo not given),inactive: 1.86
24,COP(=O)(/N=C1/CC(CCCO)=CC(C)N1Cc1cccc(OC(F)(F)F)c1)OC (stereo not given),inactive: -0.558
25,COP(=O)(/N=C1/CC(CCCO)=CC(c2ccc(CN3CCCC3)cc2)N1Cc1sc2ccccc2c1Cl)OC (stereo not given),inactive: 1.17
26,O=P(/N=C1/CC(CCCO)=CC(C2CC2)N1Cc1sc2ccccc2c1Cl)(Oc1ccccc1)Oc1ccccc1 (stereo not given),inactive: 1.24
27,COP(=O)(/N=C1/CC(c2ccc(CO)cc2)=CC(C2CC2)N1Cc1cc2c(cc1Br)OCO2)OC (stereo not given),inactive: 0.459
28,O=P(/N=C1/CC(CCCO)=CC(c2ccc(CN3CCCC3)cc2)N1Cc1sc2ccccc2c1Cl)(Oc1ccccc1)Oc1ccccc1 (stereo not given),inactive: 0.582
29,CN1/C(=N\P(=O)(Oc2ccccc2)Oc2ccccc2)CC(CCCO)=CC1C1CC1 (stereo not given),inactive: -1.52
30,O=P(/N=C1/CC(c2ccc(CO)cc2)=CC(C2CC2)N1Cc1sc2ccccc2c1Cl)(Oc1ccccc1)Oc1ccccc1 (stereo not given),inactive: 2
